Results published in PubChem BioAssay AID602149 (Vanderbilt Specialized Chemistry Center, 2011).

The chains behind the UniProt entries cited, without tags or fusion partners. Where a name states a change or a piece, a line headed by the entry shows the natural chain unless it says otherwise.
UniProt O14939: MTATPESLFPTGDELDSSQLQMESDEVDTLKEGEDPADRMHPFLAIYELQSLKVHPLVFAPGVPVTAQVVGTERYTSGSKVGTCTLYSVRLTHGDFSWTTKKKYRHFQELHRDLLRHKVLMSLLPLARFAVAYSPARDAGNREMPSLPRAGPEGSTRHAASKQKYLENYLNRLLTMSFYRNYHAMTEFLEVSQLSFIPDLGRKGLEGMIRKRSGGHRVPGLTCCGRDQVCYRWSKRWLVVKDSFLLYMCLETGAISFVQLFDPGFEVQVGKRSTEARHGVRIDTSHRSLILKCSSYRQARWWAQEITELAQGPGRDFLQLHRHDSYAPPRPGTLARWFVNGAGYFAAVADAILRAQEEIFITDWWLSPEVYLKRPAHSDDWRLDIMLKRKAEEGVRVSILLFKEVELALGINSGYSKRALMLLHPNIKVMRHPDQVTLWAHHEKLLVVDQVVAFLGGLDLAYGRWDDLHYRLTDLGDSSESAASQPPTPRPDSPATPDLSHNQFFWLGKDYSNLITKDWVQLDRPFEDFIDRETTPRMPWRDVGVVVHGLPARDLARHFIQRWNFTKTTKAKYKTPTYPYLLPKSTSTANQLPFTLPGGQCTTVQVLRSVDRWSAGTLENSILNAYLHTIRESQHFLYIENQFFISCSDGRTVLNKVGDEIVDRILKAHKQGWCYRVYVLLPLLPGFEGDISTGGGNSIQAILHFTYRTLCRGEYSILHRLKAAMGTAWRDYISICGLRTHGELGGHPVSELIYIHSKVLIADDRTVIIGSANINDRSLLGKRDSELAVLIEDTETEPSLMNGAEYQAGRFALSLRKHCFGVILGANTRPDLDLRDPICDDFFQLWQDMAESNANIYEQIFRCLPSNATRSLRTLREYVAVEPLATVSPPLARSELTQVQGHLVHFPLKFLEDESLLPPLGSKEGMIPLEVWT

Molecular target: Phospholipase D2 (Homo sapiens) + Phospholipase D2 (Homo sapiens) (UniProt O14939+O14939)
Experiment: PubChem AID 602149
Conditions: purified human PLD2 enzyme activity assay

## C[C@@H](CN1CCC2(CC1)C(=O)NCN2c1ccccc1)NC(=O)c1ccc2ccccc2c1
  IC50: 235 nM
